How the values were obtained:
[1] = test system: HEK-FAP tumor bearing mice; assay: Dosimetry analysis using OLINDA software, HEK-FAP tumor; conditions: ^177Lu; 5 nmol/mouse
Method: From the ex vivo biodistribution data obtained from the ^111In/^177Lu-FAP8-PEG3-IP-DOTA in 4T1 and HEK-FAP tumor bearing mice, the total absorbed radiation dose coefficients (mGy/MBq were calculated using OLINDA 2.2.3 software (Tables 9-12).
FIGS. 36A and 36B show comparison data related to the total absorbed dose coefficient in selected organs (blood, heart, lungs, liver, spleen, kidney's bone marrow, and tumor). Dose estimates for healthy organs such as blood, heart, lungs, liver, spleen, kidneys, and bone marrow were calculated assuming a 25 g mouse phantom, whereas for tumor dose estimates were calculated with the sphere model. Time-activity curves were fitted to the biodistribution data of each organ individually with exponential functions.

HT29 tumor bearing mice = assay: Toxicology (H&E histopathology) in HT29 tumor-bearing mice; conditions: single dose 37 MBq
Excerpt: (§1) Mice were weighed every other day during radiotherapy as a gross evaluation of health. Tissue sections from organs of interest (n=1-8 per organ per mouse) were preserved and examined blindly for lesions by a board-certified veterinary pathologist.
To assess toxicology in the HT29 tumor-bearing mice treated with Lu-Conjugate 24′, 4 μm sections of mouse heart, liver, and kidney tissue samples were taken following radiotherapy treatments of a single dose of [^177Lu] Lu-FAP8-PEG3-IP-DOTA (Lu-Conjugate 24′) and 37 MBq radiotherapy in athymic nu/nu mice bearing HT29 tumors. 1.0 mCi was used for the treatment. The tissue samples were stained with H&E and representative photomicrographs were taken (FIG. 47; Table 13).

[2] = test system: MDA-MB-231 tumor bearing mice; assay: Toxicology (H&E histopathology) in MDA-MB-231 tumor-bearing mice; conditions: single dose 37 MBq
Excerpt: as §1
To assess toxicology in the MDA-MB-231 tumor-bearing mice treated with Lu-Conjugate 24′, 4 μm sections of mouse heart, liver, and kidney tissue samples were taken following radiotherapy treatments of a single dose of [^177Lu] Lu-FAP8-PEG3-IP-DOTA (Lu-Conjugate 24′) and 37 MBq radiotherapy in athymic nu/nu mice bearing MDA-MB-231 tumors. 1.0 mCi was used for the treatment. The tissue samples were stained with H&E and representative photomicrographs were taken (FIG. 48; Table 14).

## COc1ccc(CNC(=O)C(=O)[C@@H]2CC(F)(F)CN2C(=O)CNC(=O)c2ccnc3ccc(OCC(=O)NCCOCCOCCOCCNC(=O)[C@H](CCCCNC(=O)CCCc4ccc(I)cc4)NC(=O)CN4CCN(CC(=O)O)CCN(CC(=O)O)CCN(CC(=O)O)CC4)cc23)cc1OC.[Lu+3]
[1]
  Kinetics value, Blood: 4.26E−1 MBq-h/MBq
  Kinetics value, Bone Marrow: 6.27E−02 MBq-h/MBq
  Kinetics value, Heart: 1.05E−1 MBq-h/MBq
  Kinetics value, Intestines: 1.20E−1 MBq-h/MBq
  Kinetics value, Kidneys: 4.46E−01 MBq-h/MBq
  Kinetics value, Liver: 4.44E0 MBq-h/MBq
  Kinetics value, Lung: 1.56E−1 MBq-h/MBq
  Kinetics value, Spleen: 4.17E−1 MBq-h/MBq
  Kinetics value, Stomach: 5.81E−2 MBq-h/MBq
  Kinetics value, Tumor: 1.34E01 MBq-h/MBq
  Organ doses, Blood: 2.70E02 mGy/MBq
  Organ doses, Bone Marrow: 1.36E02 mGy/MBq
  Organ doses, Heart: 7.18E01 mGy/MBq
  Organ doses, Intestines: 7.32E01 mGy/MBq
  Organ doses, Kidneys: 2.34E02 mGy/MBq
  Organ doses, Liver: 4.41E02 mGy/MBq
  Organ doses, Lung: 5.73E01 mGy/MBq
  Organ doses, Spleen: 3.08E02 mGy/MBq
  Organ doses, Stomach: 4.13E01 mGy/MBq
  Organ doses, Tumor: 2.27E03 mGy/MBq
HT29 tumor bearing mice
  histopathologic findings, treated vs untreated mice: no significant difference in histopathologic findings between treated and untreated mice
HT29 tumor bearing mice; individual treated mice M6-M10
  Liver histopathology: NDL
  Lungs histopathology: NDL
[2]; individual treated mice M6-M10
  Heart histopathology: NDL
  Kidneys histopathology: NDL
  Lungs histopathology: NDL
[2]; mice #8 and #9, liver
  mice with histopathologic lesions consistent with necrosis and active inflammation: 2 of the 5

Source: patent US20260382772A1, “KETO-AMIDE-BASED FIBROBLAST ACTIVATION PROTEIN-TARGETED LIGAND LINKED TO AN IMAGING OR THERAPEUTIC AGENT, COMPOSITIONS, AND METHODS OF USE” (published 2026)
